From US8729074B2, “Inhibitors of PI3 kinase” (Amgen Inc., priority 2009, dated 2014) come the findings set out here.

As a reminder, the IC50 is the concentration at which inhibition is half-maximal.

The target of this assay is mTOR (Homo sapiens (Human), UniProt P42345). Description: In vitro mTOR Lanthascreen assay. Format: biochemical. Conditions: average if run more than once. From the text: The Invitrogen (Carlsbad, Calif.) mammalian target of rapamycin (mTOR) Lanthascreen assay can be used to quantitate mTOR kinase activity in an in vitro setting. Active mTOR phosphorylates eukaryotic translation initiation factor 4E binding protein 1 (4E-BP1) on residue threonine 46. This phosphorylation event can be detected with a phospho-specific terbium (Tb) labeled Ab, in turn bringing the Tb label in close proximity to the GFP tagged 4E-BP 1 and allowing for time-resolved fluorescence resonance energy transfer (TR-FRET), which correlates 4E-BP1 phosphorylation levels with mTOR kinase activity.
Enzyme reaction buffer can be prepared in deionized water containing 50 mM HEPES (pH 7.5), 0.01% Polysorbate 20, 1 mM EGTA, and 10 mM MnCl2.
Dilutions of the compound to be tested can be prepared in 96-well polypropylene plates (Fisher Scientific, Waltham, Mass.). One row represents a 10-point dose of compound diluted 1:3 in enzyme reaction buffer and 20% dimethyl sulfoxide (DMSO). The top concentration for all compounds is 36 μM. […]
The enzyme assay can be terminated upon the addition of 10 μL of 20 mM EDTA and 4 nM Tb-labeled anti-phospho-4E-BP1 [T46] antibody (Invitrogen, Carlsbad, Calif.). The assay plate can then be incubated at room temperature for 1 hour and results read on a Tecan Safire II plate reader (Tecan, Männedorf, Switzerland). […]
For orientation: In TR-FRET formats the signal depends on donor and acceptor labels being close together.

In turn, `COc1cc(-c2cnc3ccc(N4C(=O)OC[C@H]4Cc4ccccc4)cn23)cnc1OC` [Example 14, (4R)-4-Benzyl-3-(3-(5,6-dimethoxy-3-pyridinyl)imidazo[1,2-a]pyridin-6-yl)-1,3-oxazolidin-2-one] registered an IC50 of 5.1 µM. This lies in the single-digit micromolar range.
